Literature values in patent US11174245B2, “Benzimidazole compounds and derivatives as EGFR inhibitors” (Boehringer Ingelheim International GmbH, priority 2018, dated 2021).

Tested on: EGFR M+ NSCLC patients
Details: EGFR M+ NSCLC patients treated in 1st line; cited from earlier work

Q: For `COc1cc2ncnc(Nc3ccc(F)c(Cl)c3)c2cc1OCCCN1CCOCC1` [gefitinib], which objective response rate is on record?
A: 60-85%
